Target: rat histamine H3 receptor (Rattus norvegicus, UniProt Q9QYN8)
Test: Competition binding assay with [3H]-N-α-methylhistamine, rat H3 receptor
Conditions: read-out: rat H3 Ki; cloned rat H3 receptor, C6 or HEK293 cell membranes

By UniProt entry, the sequences of proteins in these tests, tags left out. Where a name states a change or a piece, a line headed by the entry shows the natural chain unless it says otherwise.
UniProt Q9QYN8: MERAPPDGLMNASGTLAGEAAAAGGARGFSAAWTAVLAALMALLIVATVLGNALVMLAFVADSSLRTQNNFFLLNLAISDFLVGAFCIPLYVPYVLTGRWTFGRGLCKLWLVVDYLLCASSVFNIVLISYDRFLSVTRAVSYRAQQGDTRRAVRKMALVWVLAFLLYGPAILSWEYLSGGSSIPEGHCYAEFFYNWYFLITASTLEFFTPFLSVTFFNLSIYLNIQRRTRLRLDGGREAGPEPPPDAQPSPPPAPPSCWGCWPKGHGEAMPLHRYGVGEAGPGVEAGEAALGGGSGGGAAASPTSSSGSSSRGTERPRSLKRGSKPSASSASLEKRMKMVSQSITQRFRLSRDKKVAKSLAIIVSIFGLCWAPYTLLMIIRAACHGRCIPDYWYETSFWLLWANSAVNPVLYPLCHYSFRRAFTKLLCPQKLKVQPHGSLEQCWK

SMILES: C[C@@H]1CCCN1CCc1cc2cc(-c3ccc(C#N)cc3)ccc2o1 [Compound 2, 4-(2-[2-((R)-2-methyl-pyrrolidin-1-yl)-ethyl]-benzofuran-5-yl}-benzonitrile]
- Ki: 0.45 nM
